What follows are compounds tested against T1, Quinolone resistance protein NorA (Staphylococcus aureus) (UniProt P0A0J7). Conditions: 1199B.
T1 sequence (whole entry): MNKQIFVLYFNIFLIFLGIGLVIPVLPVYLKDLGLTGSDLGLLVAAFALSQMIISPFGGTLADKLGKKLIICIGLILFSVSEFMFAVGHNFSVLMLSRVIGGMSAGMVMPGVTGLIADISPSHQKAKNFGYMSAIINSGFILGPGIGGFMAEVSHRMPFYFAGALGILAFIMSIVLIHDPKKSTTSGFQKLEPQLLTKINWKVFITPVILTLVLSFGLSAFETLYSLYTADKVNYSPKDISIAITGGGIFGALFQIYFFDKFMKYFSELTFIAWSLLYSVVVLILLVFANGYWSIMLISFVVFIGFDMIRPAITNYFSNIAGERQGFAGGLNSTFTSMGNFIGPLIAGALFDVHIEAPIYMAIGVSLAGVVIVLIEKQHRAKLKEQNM

First: CC(C)N(C(=O)/C=C/C1=Cc2ccccc2CC1)C(C)C
Second: CC(C)CNC(=O)/C=C/C1=Cc2ccccc2CC1
The MEC of the first is 2-fold higher: 25 µg/mL for the first, 12.5 µg/mL for the second.

COc1cc2c(cc1OC)CCC(/C=C/C(=O)N1CCCCC1)=C2 and COc1cc2c(cc1OC1CC1)C=C(/C=C/C(=O)N1CCCCC1)CC2 cannot be ordered by MEC: greater than 100 µg/mL for the first, greater than 100 µg/mL for the second.

O=C(/C=C/C1=C(c2ccccc2)c2ccccc2CC1)Nc1cccc2ccccc12 and CC(C)CNC(=O)/C=C/C1=C(c2ccccc2)c2ccccc2CC1 cannot be ordered by MEC: greater than 100 µg/mL for the first, greater than 100 µg/mL for the second.

O=C(CCC1CCc2ccccc2C1c1ccccc1)N1CCCCC1 (stereo not given) and O=C(CCC1CCc2ccccc2C1)N1CCCCC1 (stereo not given) are the same in MEC: 25 µg/mL for the first, 25 µg/mL for the second.

CC(C)CN(CC(C)C)C(=O)/C=C/C1=C(Cc2ccccc2)c2ccccc2CC1 and CC(C)N(C(=O)/C=C/C1=C(Cc2ccccc2)c2ccccc2CC1)C(C)C cannot be ordered by MEC: greater than 100 µg/mL for the first, greater than 100 µg/mL for the second.

Going from O=C(/C=C/C=C/c1ccc2c(c1)OCO2)N1CCCCC1 to O=C(/C=C/C1=Cc2ccccc2CC1)N1CCCCC1, the MEC falls from 50 µg/mL to 25 µg/mL (2-fold).

First: COc1cc2c(cc1OC)CCC(/C=C/C(=O)N1CCOCC1)=C2
Second: COc1cc2c(cc1OC)CCC(/C=C/C(=O)NCC(C)C)=C2
The MEC of the first is higher: greater than 100 µg/mL for the first, 12.5 µg/mL for the second.

First: CC(C)CNC(=O)/C=C/C1=C(Cc2ccccc2)c2ccccc2CC1
Second: O=C(/C=C/C1=C(Cc2ccccc2)c2ccccc2CC1)N1CCCCC1
The MEC of the first is higher: greater than 100 µg/mL for the first, 25 µg/mL for the second.

Cc1ccccc1NC(=O)/C=C/C1=Cc2ccccc2CC1 and COc1ccc(NC(=O)/C=C/C2=Cc3ccccc3CC2)cc1 are the same in MEC: 25 µg/mL for the first, 25 µg/mL for the second.

CC(C)CN(CC(C)C)C(=O)/C=C/C1=C(c2ccccc2)c2ccccc2CC1 and CC(C)N(C(=O)/C=C/C1=C(c2ccccc2)c2ccccc2CC1)C(C)C cannot be ordered by MEC: greater than 100 µg/mL for the first, greater than 100 µg/mL for the second.

First: CC(C)CNC(=O)CCC1CCc2ccccc2C1 (stereo not given)
Second: COc1cc2c(cc1OC1CC1)C=C(/C=C/C(=O)NCC(C)C)CC2
The MEC of the first is 2-fold higher: 25 µg/mL for the first, 12.5 µg/mL for the second.

Going from O=C(/C=C/C1=C(Cc2ccccc2)c2ccccc2CC1)Nc1ccc2c(c1)OCO2 to O=C(/C=C/C1=C(c2ccccc2)c2ccccc2CC1)N1CCCCC1, the MEC falls from greater than 100 µg/mL to 12.5 µg/mL.

CCCCCCCCNC(=O)/C=C/C1=Cc2cc(OC)c(OC)cc2CC1 showed an MEC greater than 100 µg/mL.

Reference: ChEMBL document CHEMBL1240453, “Substituted dihydronaphthalenes as efflux pump inhibitors of Staphylococcus aureus” (2010)
